Publication PMC3100226 (Journal of Pain Research, 2011)
pIC50: −log10 of the molar value.

Amino acid sequences for entries named in this document (tags omitted). A change or cut given only in a name is not applied to a line headed by its entry. Residues count along the entry.
UniProt Q63380, 1-617: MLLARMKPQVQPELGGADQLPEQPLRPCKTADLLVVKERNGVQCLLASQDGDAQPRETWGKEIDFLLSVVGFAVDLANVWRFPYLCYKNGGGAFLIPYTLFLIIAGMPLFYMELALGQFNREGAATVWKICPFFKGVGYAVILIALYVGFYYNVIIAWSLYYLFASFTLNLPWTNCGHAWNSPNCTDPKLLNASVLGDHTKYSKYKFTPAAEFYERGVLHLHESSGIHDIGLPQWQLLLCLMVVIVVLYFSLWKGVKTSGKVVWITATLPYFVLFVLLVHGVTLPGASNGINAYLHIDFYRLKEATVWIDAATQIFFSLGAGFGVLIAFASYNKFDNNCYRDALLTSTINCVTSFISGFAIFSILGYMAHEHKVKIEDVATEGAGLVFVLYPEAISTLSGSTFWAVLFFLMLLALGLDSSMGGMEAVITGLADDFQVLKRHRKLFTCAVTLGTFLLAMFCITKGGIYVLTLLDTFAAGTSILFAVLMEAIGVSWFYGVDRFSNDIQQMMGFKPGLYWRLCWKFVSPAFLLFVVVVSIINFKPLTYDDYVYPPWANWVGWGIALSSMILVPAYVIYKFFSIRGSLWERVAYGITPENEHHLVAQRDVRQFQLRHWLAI
UniProt A0A286XTF2, 1-366: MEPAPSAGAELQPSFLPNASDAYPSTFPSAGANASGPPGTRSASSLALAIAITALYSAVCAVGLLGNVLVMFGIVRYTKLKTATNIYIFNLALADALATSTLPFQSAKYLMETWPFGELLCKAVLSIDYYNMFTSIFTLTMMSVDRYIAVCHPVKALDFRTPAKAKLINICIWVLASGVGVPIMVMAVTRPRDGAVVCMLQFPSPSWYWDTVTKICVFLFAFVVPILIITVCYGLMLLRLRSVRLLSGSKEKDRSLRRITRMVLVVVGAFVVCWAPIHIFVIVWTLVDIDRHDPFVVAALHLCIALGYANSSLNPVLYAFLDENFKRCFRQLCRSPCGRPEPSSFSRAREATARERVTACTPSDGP
UniProt P19327, whole entry: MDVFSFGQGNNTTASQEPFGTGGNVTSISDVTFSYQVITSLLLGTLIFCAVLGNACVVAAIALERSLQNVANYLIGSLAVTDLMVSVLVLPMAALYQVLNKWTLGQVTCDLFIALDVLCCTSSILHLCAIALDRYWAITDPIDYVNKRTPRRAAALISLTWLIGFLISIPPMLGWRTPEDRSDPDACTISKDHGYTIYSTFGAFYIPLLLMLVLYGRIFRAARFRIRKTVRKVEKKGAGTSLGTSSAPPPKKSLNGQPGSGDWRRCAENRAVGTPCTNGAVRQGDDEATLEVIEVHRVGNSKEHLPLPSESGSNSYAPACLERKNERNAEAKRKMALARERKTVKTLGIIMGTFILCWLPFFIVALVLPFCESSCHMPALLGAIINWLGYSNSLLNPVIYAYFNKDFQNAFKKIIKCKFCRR
UniProt P35563, 24-483: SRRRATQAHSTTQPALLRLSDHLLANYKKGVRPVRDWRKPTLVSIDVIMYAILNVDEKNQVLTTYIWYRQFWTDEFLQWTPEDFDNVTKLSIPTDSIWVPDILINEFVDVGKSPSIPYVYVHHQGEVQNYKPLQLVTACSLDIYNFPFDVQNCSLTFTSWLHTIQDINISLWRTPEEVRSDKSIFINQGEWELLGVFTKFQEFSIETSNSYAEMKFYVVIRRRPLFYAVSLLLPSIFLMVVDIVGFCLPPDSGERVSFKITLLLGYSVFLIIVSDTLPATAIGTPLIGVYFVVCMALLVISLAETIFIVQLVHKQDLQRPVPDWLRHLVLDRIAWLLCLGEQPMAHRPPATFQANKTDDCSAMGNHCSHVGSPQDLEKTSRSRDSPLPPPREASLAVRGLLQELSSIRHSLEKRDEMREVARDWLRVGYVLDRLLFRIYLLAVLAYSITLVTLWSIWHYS

Legend:
NE uptake = NE uptake (Rattus norvegicus, UniProt Q63380); experiment: Receptor characterization panel: NE uptake site binding
NMDA/channel site = NMDA/channel site (Rattus norvegicus, UniProt P35439); experiment: Receptor characterization panel: NMDA channel site binding
DOP (Opiate δ) = DOP (Opiate δ) (Cavia porcellus, UniProt A0A286XTF2); experiment: Receptor characterization panel: DOP binding; design: species or system guinea pig
5-HT1A = 5-HT1A (Rattus norvegicus, UniProt P19327); experiment: Receptor characterization panel: 5-HT1A binding; details: read-out: Reference agents (IC50); [3H]8-OH-DPAT; hippocampus/rat
5-HT3 = 5-HT3 (Rattus norvegicus, UniProt P35563); experiment: Receptor characterization panel: 5-HT3 binding; details: read-out: Reference agents (IC50); [3H]BRL 43,694; hippocampus-cortex/rat

Q: With `CNCCC(Oc1ccccc1OC)c1ccccc1` (centres unmarked) [Nisoxetine] as the compound, how does the pIC50 (NE uptake) read?
A: 8.96

Q: `CC12CC3CC(C)(C1)CC(N)(C3)C2` [Memantine] was tested. Which pIC50 (NMDA/channel site) did it give?
A: 5.89

Q: How did the pIC50 (DOP (Opiate δ)) turn out when `Oc1ccc2c3c1O[C@H]1c4[nH]c5ccccc5c4C[C@@]4(O)[C@@H](C2)N(CC2CC2)CC[C@]314` [Naltrindole] was run?
A: 8.90

Q: What does the source list for `NCCc1c[nH]c2ccc(O)cc12` [5-HT, reference compound]?
A: pIC50 (5-HT1A): 7.94; pIC50 (5-HT3): 6.48
